Target: T1, AT4 receptor (Cavia porcellus, UniProt H0VNM7)
T1 sequence (H0VNM7 1-1025): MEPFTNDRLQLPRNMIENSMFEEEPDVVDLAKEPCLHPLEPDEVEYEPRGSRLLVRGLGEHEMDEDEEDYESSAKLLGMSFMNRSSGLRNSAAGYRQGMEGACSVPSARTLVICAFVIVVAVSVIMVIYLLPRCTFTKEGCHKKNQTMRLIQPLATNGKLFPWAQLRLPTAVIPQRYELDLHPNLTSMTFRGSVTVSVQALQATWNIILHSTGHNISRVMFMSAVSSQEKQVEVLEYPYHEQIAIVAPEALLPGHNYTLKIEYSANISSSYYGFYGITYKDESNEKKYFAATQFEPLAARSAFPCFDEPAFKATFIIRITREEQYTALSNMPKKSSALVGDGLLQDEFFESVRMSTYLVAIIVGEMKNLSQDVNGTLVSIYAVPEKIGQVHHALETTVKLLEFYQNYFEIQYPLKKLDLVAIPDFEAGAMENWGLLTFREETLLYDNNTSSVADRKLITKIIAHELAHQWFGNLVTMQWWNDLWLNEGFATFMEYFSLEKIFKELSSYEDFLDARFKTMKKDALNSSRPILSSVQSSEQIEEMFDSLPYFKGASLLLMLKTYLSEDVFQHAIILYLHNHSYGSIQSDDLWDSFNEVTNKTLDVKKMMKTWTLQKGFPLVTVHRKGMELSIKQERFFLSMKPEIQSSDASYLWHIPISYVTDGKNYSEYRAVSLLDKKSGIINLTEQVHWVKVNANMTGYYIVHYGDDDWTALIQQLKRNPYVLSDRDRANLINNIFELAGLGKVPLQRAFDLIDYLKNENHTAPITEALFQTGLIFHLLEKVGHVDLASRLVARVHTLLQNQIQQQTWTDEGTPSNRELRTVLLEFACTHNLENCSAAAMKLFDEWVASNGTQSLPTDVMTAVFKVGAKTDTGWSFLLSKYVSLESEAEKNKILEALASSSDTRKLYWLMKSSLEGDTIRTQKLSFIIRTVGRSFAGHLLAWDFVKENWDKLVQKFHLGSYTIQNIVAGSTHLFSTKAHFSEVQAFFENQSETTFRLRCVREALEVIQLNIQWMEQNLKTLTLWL
Type: binding, guinea pig
Settings: read-out: Kd (nonbinding peptides)

| Substance | Kd [nM] |
| --- | --- |
| Arg8 -Vasopressin | > 1000 |
| Neuropeptide Y | > 1000 |
